In PubChem BioAssay AID652104 (National Center for Advancing Translational Sciences (NCATS), 2013):
This is a selection; strong and weak results do not stand in their true shares. Results filed as inconclusive are left out. Active and inactive are the calls of the source. Calls come from the whole dose curve; as a rule, active = well fitted activation curve with a large enough effect; inconclusive = small, poorly fitted or top-dose-only effect, or another doubt; inactive = no such curve, though single readings can be large or run the other way.

assay: qHTS of TDP-43 Inhibitors; settings: TDP-43 expressing yeast growth rescue, BacTiter-Glo, 24 h; at 46.1 µM (top of the series); note: % of control where 0% means no effect; nearly all actives have a fitted effect of over 50% in size

Compound	growth rescue (activation)
CCC(=O)N(c1ccccc1)C1(COC)CCN(CCc2cccs2)CC1	inactive: 20.6%
CCC(=O)N(c1ccccc1)C1(COC)CCN(CCn2nnn(CC)c2=O)CC1	inactive: 18.8%
